By UniProt entry, the sequences of proteins in these tests, tags left out. Residues count along the entry.
UniProt P01375, 77-233 limits assumed: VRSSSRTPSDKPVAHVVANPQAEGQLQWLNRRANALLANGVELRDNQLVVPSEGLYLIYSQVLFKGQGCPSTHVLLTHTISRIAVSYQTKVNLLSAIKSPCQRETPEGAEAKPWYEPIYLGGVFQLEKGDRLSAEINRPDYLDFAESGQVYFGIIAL

According to patent US20030017150A1:

Molecular target: recombinant human TNF (human) (UniProt P01375)
Assay: binding assays of cA2 and recombinant human TNF; format not stated

## Chimeric Ig derived protein cA2 (antibody)
  Ka: 1.04e+10 M⁻¹
